Data from ChEMBL document CHEMBL1121943, “Benzeneacetamide amines: structurally novel non-m mu opioids” (1982).

Experiments:
[1] = organism: Mus musculus; assay: Tested for effective dose required to produce antinociceptive activity in mice by tail flick method
[2] = organism: Mus musculus; assay: Tested for effective dose required to produce antinociceptive activity in mice by tail pinch method
[3] = organism: Mus musculus; assay: Tested for effective dose required to produce antinociceptive activity in mice by HCl writhing method

CN(C)[C@@H]1CCCC[C@H]1N(C)C(=O)Cc1ccc(Cl)c(Cl)c1
ED50 [1]: 2.8 mg/kg | ED50 [2]: 7 mg/kg | ED50 [3]: 3.1 mg/kg
